Patent US10214520B2, “Substituted azaspiro(4.5)decane derivatives” (priority 2014, dated 2019)

Sequences of proteins named here, by UniProt entry; tags and fusion partners are left off. A change or cut given only in a name is not applied to a line headed by its entry.
UniProt P41146: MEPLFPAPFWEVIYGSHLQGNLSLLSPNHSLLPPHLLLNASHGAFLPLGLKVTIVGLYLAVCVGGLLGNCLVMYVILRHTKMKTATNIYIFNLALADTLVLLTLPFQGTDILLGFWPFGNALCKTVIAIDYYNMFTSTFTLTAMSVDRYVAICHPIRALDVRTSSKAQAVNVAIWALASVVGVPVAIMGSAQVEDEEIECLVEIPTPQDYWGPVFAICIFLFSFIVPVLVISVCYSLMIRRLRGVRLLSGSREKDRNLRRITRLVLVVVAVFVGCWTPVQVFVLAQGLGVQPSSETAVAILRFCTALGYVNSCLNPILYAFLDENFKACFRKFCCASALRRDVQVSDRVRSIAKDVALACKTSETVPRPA
UniProt P35372, whole entry, looked up: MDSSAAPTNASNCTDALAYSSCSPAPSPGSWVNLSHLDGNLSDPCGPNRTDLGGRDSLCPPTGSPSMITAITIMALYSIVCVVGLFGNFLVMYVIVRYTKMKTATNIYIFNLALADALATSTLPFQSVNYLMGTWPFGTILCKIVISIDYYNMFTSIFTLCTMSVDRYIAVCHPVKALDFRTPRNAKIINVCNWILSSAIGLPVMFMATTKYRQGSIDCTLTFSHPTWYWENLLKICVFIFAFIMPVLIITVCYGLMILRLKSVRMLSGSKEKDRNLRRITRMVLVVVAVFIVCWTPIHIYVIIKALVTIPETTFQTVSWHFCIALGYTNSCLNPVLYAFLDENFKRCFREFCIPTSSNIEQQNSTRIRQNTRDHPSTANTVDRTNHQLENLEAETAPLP

Columns and labels:
ORL1 receptor = ORL1 receptor (Homo sapiens, UniProt P41146); conditions: for % inhibition (ORL1) [1 μM] / ORL1 % Inhibition @ 1 μM: test concentration 1 μM
human μ opiate receptor = human μ opiate receptor (Homo sapiens, UniProt P35372); test: μ opiate receptor binding assay with [3H]-naloxone, membrane preparation of CHO-K1 cells (WGA-SPA beads); conditions: for % inhibition (μ) [1 μM] / MOP % Inhibition @1 μM: test concentration 1 μM
[1] = read-out: Ki (ORL1) mean [μm], mean
[2] = read-out: Ki (μ) mean [μm], mean

CN(C)C1(c2cccs2)CCC2(CCN(CC(=O)N3CCC3)C2)CC1 (centres unmarked)
Ki (ORL1 receptor; [1]): 24.5 nM | % inhibition (ORL1) [1 μM] (ORL1 receptor): 78.5% | Ki (human μ opiate receptor; [2]): 2.55 nM | % inhibition (μ) [1 μM] (human μ opiate receptor): 98%

CN(C)C1(c2ccccc2)CCC2(CCN(Cc3cccnc3)C2)CC1 (centres unmarked)
Ki (ORL1 receptor; [1]): 15.5 nM | % inhibition (ORL1) [1 μM] (ORL1 receptor): 80% | Ki (human μ opiate receptor; [2]): 51.5 nM | % inhibition (μ) [1 μM] (human μ opiate receptor): 89%

Cc1cnoc1C(=O)NCCCN1C[C@]2(CC[C@@](c3ccccc3)(N(C)C)CC2)CC1=O
Ki (ORL1 receptor; read-out: ORL1 Ki): 180 nM | Ki (human μ opiate receptor; read-out: MOP Ki): 76 nM

COC(=O)c1ccc(N2C[C@]3(CC[C@@](c4ccccc4)(N(C)C)CC3)CC2=O)cc1
ORL1 % Inhibition @ 1 μM (ORL1 receptor): 30% | MOP % Inhibition @1 μM (human μ opiate receptor): 90%

Cis-3-[8-Dimethylamino-8-(3-methoxy-propyl)-3-oxo-2-azaspiro[4.5]decan-2-yl]-2,2-dimethyl-propionamide 2,2,2-trifluoro acetate
ORL1 % Inhibition @ 1 μM (ORL1 receptor): 10% | Ki (human μ opiate receptor; read-out: MOP Ki): 2020 nM | MOP % Inhibition @1 μM (human μ opiate receptor): 27%

CN(C)[C@]1(c2ccccc2)CC[C@]2(CC1)CC(=O)N(c1cccc3nsnc13)C2
Ki (ORL1 receptor; read-out: ORL1 Ki): 2.1 nM | Ki (human μ opiate receptor; read-out: MOP Ki): 6.2 nM

CN(C)C1(c2ccccc2)CCC2(CC1)CC(=O)N(CC(=O)NC1CCS(=O)(=O)CC1)C2 (centres unmarked)
Ki (ORL1 receptor; read-out: ORL1 Ki): 1110 nM | ORL1 % Inhibition @ 1 μM (ORL1 receptor): 15% | MOP % Inhibition @1 μM (human μ opiate receptor): 56%

CN(C)C1(CC2CCCC2)CCC2(CCN(Cc3ccccc3)C2)CC1 (centres unmarked)
Ki (ORL1 receptor; [1]): 22 nM | % inhibition (ORL1) [1 μM] (ORL1 receptor): 83% | Ki (human μ opiate receptor; [2]): 5.5 nM | % inhibition (μ) [1 μM] (human μ opiate receptor): 99.5%

CN(C)C1(c2ccccc2)CCC2(CCN(C(=O)c3cccs3)C2)CC1 (centres unmarked)
Ki (ORL1 receptor; [1]): 1.08 nM | % inhibition (ORL1) [1 μM] (ORL1 receptor): 97% | Ki (human μ opiate receptor; [2]): 1.15 nM | % inhibition (μ) [1 μM] (human μ opiate receptor): 100%

CN(C)[C@]1(c2ccccc2)CC[C@]2(CC1)CC(=O)N(CC(=O)NCc1ccncn1)C2
Ki (ORL1 receptor; read-out: ORL1 Ki): 71 nM | ORL1 % Inhibition @ 1 μM (ORL1 receptor): 74% | Ki (human μ opiate receptor; read-out: MOP Ki): 85.5 nM | MOP % Inhibition @1 μM (human μ opiate receptor): 94%

CN(C)[C@]1(c2ccccc2)CC[C@]2(CC1)CC(=O)N(CCC(C)(C)C(=O)NCc1cncnc1)C2
Ki (ORL1 receptor; read-out: ORL1 Ki): 54 nM | ORL1 % Inhibition @ 1 μM (ORL1 receptor): 89% | Ki (human μ opiate receptor; read-out: MOP Ki): 23.5 nM | MOP % Inhibition @1 μM (human μ opiate receptor): 96%

c1ccc(CN2CCC3(CCC(c4cccs4)(N4CCC4)CC3)C2)cc1 (centres unmarked)
Ki (ORL1 receptor; [1]): 36.5 nM | % inhibition (ORL1) [1 μM] (ORL1 receptor): 59.5% | Ki (human μ opiate receptor; [2]): 66.5 nM | % inhibition (μ) [1 μM] (human μ opiate receptor): 83%

CN(C)[C@]1(c2ccccc2)CC[C@]2(CC1)CC(=O)N(CC(=O)NCC(N)=O)C2
Ki (ORL1 receptor; read-out: ORL1 Ki): 395 nM | ORL1 % Inhibition @ 1 μM (ORL1 receptor): 29% | Ki (human μ opiate receptor; read-out: MOP Ki): 190 nM | MOP % Inhibition @1 μM (human μ opiate receptor): 72%

COC(=O)C(C)(C)CN1C[C@]2(CC[C@@](c3ccccn3)(N(C)C)CC2)CC1=O
Ki (ORL1 receptor; read-out: ORL1 Ki): 23 nM | ORL1 % Inhibition @ 1 μM (ORL1 receptor): 84% | Ki (human μ opiate receptor; read-out: MOP Ki): 9.8 nM | MOP % Inhibition @1 μM (human μ opiate receptor): 100%

CN(C)[C@]1(c2ccccc2)CC[C@]2(CC1)CC(=O)N(CC(=O)NCCS(C)(=O)=O)C2
Ki (ORL1 receptor; read-out: ORL1 Ki): 71.3 nM | ORL1 % Inhibition @ 1 μM (ORL1 receptor): 70% | Ki (human μ opiate receptor; read-out: MOP Ki): 61 nM | MOP % Inhibition @1 μM (human μ opiate receptor): 91%

Cis-2,2-Dimethyl-3-(8-methylamino-3-oxo-8-pyridin-2-yl-2-azaspiro[4.5]decan-2-yl)-propionamide 2,2,2-trifluoro acetate
ORL1 % Inhibition @ 1 μM (ORL1 receptor): 7% | Ki (human μ opiate receptor; read-out: MOP Ki): 4650 nM | MOP % Inhibition @1 μM (human μ opiate receptor): 28%

Cc1ccc(C2(N(C)C)CCC3(CCN(C(=O)c4ccccn4)C3)CC2)s1 (centres unmarked)
Ki (ORL1 receptor; [1]): 370 nM | % inhibition (ORL1) [1 μM] (ORL1 receptor): 26% | Ki (human μ opiate receptor; [2]): 79 nM | % inhibition (μ) [1 μM] (human μ opiate receptor): 80.5%

CC(=O)NCC(=O)N1CCC2(CCC(c3ccccc3)(N(C)C)CC2)C1 (centres unmarked)
Ki (ORL1 receptor; read-out: ORL1 Ki): 21 nM | ORL1 % Inhibition @ 1 μM (ORL1 receptor): 84% | Ki (human μ opiate receptor; read-out: MOP Ki): 14.5 nM | MOP % Inhibition @1 μM (human μ opiate receptor): 96%

CN(C)[C@]1(c2ccccc2)CC[C@@]2(CC1)CC(=O)N(c1cnccn1)C2
Ki (ORL1 receptor; read-out: ORL1 Ki): 345 nM | Ki (human μ opiate receptor; read-out: MOP Ki): 1540 nM

COc1cnc(N2CC3(CCC(c4ccccc4)(N(C)C)CC3)CC2=O)nc1 (centres unmarked)
Ki (ORL1 receptor; read-out: ORL1 Ki): 170 nM | Ki (human μ opiate receptor; read-out: MOP Ki): 295 nM

CN(C)C1(c2cccs2)CCC2(CCN(C(=O)OC(C)(C)C)C2)CC1 (centres unmarked)
Ki (ORL1 receptor; [1]): 13.5 nM | % inhibition (ORL1) [1 μM] (ORL1 receptor): 79% | Ki (human μ opiate receptor; [2]): 2.5 nM | % inhibition (μ) [1 μM] (human μ opiate receptor): 98.5%

CN(C)[C@]1(c2ccccn2)CC[C@]2(CC1)CC(=O)N(CC(=O)OC(C)(C)C)C2
Ki (ORL1 receptor; read-out: ORL1 Ki): 36 nM | ORL1 % Inhibition @ 1 μM (ORL1 receptor): 79% | Ki (human μ opiate receptor; read-out: MOP Ki): 8.6 nM | MOP % Inhibition @1 μM (human μ opiate receptor): 99%

Cc1ccc(C2(N(C)C)CCC3(CCN(C(=O)c4cccnc4)C3)CC2)s1 (centres unmarked)
Ki (ORL1 receptor; [1]): 295 nM | % inhibition (ORL1) [1 μM] (ORL1 receptor): 36% | Ki (human μ opiate receptor; [2]): 270 nM | % inhibition (μ) [1 μM] (human μ opiate receptor): 56.5%

CN(C)[C@]1(c2ccccc2)CC[C@]2(CC1)CC(=O)N(CCC(C)(C)C(=O)NCCS(C)(=O)=O)C2
Ki (ORL1 receptor; read-out: ORL1 Ki): 205 nM | ORL1 % Inhibition @ 1 μM (ORL1 receptor): 71% | Ki (human μ opiate receptor; read-out: MOP Ki): 57.5 nM | MOP % Inhibition @1 μM (human μ opiate receptor): 93%

CNC(=O)CCN1C[C@]2(CC[C@@](c3ccccc3)(N(C)C)CC2)CC1=O
Ki (ORL1 receptor; read-out: ORL1 Ki): 48 nM | ORL1 % Inhibition @ 1 μM (ORL1 receptor): 66% | Ki (human μ opiate receptor; read-out: MOP Ki): 68.5 nM | MOP % Inhibition @1 μM (human μ opiate receptor): 85%

Cc1nccc(NC(=O)C(C)(C)CCN2C[C@]3(CC[C@@](c4ccccc4)(N(C)C)CC3)CC2=O)n1
Ki (ORL1 receptor; read-out: ORL1 Ki): 33.5 nM | ORL1 % Inhibition @ 1 μM (ORL1 receptor): 75% | Ki (human μ opiate receptor; read-out: MOP Ki): 13 nM | MOP % Inhibition @1 μM (human μ opiate receptor): 101%

CN(C)[C@]1(c2ccccn2)CC[C@]2(CC1)CC(=O)N(CCC(N)=O)C2
ORL1 % Inhibition @ 1 μM (ORL1 receptor): 19% | Ki (human μ opiate receptor; read-out: MOP Ki): 1760 nM | MOP % Inhibition @1 μM (human μ opiate receptor): 39%

CN(C)[C@]1(c2ccccc2)CC[C@]2(CC1)CC(=O)N(CCC(=O)Nc1ccccn1)C2
Ki (ORL1 receptor; read-out: ORL1 Ki): 130 nM | ORL1 % Inhibition @ 1 μM (ORL1 receptor): 74% | Ki (human μ opiate receptor; read-out: MOP Ki): 28 nM | MOP % Inhibition @1 μM (human μ opiate receptor): 91%

COc1cccc(CCC(=O)N2CCC3(CCC(c4ccccc4)(N(C)C)CC3)C2)c1 (centres unmarked)
Ki (ORL1 receptor; read-out: ORL1 Ki): 28 nM | ORL1 % Inhibition @ 1 μM (ORL1 receptor): 82% | Ki (human μ opiate receptor; read-out: MOP Ki): 5.1 nM | MOP % Inhibition @1 μM (human μ opiate receptor): 102%

CN(C)C1(c2cnccn2)CCC2(CC1)CC(=O)N(CC(N)=O)C2 (centres unmarked)
ORL1 % Inhibition @ 1 μM (ORL1 receptor): 6% | Ki (human μ opiate receptor; read-out: MOP Ki): 2200 nM | MOP % Inhibition @1 μM (human μ opiate receptor): 36%

COCCNC(=O)C(C)(C)CCN1C[C@]2(CC[C@@](c3ccccc3)(N(C)C)CC2)CC1=O
Ki (ORL1 receptor; read-out: ORL1 Ki): 240 nM | ORL1 % Inhibition @ 1 μM (ORL1 receptor): 59% | Ki (human μ opiate receptor; read-out: MOP Ki): 70.5 nM | MOP % Inhibition @1 μM (human μ opiate receptor): 94%

CN(C)[C@]1(c2ccccc2)CC[C@]2(CC1)CC(=O)N(CCC(C)(C)C(=O)NCCO)C2
Ki (ORL1 receptor; read-out: ORL1 Ki): 76.5 nM | ORL1 % Inhibition @ 1 μM (ORL1 receptor): 72% | Ki (human μ opiate receptor; read-out: MOP Ki): 31.5 nM | MOP % Inhibition @1 μM (human μ opiate receptor): 93%

Cis-4-(8-Dimethylamino-3-oxo-8-pyridin-2-yl-2-azaspiro[4.5]decan-2-yl)-2,2-dimethyl-butyramide
Ki (ORL1 receptor; read-out: ORL1 Ki): 175 nM | ORL1 % Inhibition @ 1 μM (ORL1 receptor): 57% | Ki (human μ opiate receptor; read-out: MOP Ki): 270 nM | MOP % Inhibition @1 μM (human μ opiate receptor): 75%

CN(C)[C@]1(c2ccccn2)CC[C@]2(CC1)CC(=O)N(CCC(=O)O)C2
ORL1 % Inhibition @ 1 μM (ORL1 receptor): −6% | Ki (human μ opiate receptor; read-out: MOP Ki): 6580 nM | MOP % Inhibition @1 μM (human μ opiate receptor): 14%

CN(C)C1(c2ccccn2)CCC2(CC1)CC(=O)N(CCC(=O)OC(C)(C)C)C2 (centres unmarked)
Ki (ORL1 receptor; read-out: ORL1 Ki): 250 nM | ORL1 % Inhibition @ 1 μM (ORL1 receptor): 43% | Ki (human μ opiate receptor; read-out: MOP Ki): 43.5 nM | MOP % Inhibition @1 μM (human μ opiate receptor): 97%

Cis-4-[8-Dimethylamino-8-(3-methoxy-propyl)-3-oxo-2-azaspiro[4.5]decan-2-yl]-butyramide 2,2,2-trifluoro acetate
ORL1 % Inhibition @ 1 μM (ORL1 receptor): −2% | Ki (human μ opiate receptor; read-out: MOP Ki): 5900 nM | MOP % Inhibition @1 μM (human μ opiate receptor): 11%

CNC(=O)CNC(=O)CN1C[C@]2(CC[C@@](c3ccccc3)(N(C)C)CC2)CC1=O
Ki (ORL1 receptor; read-out: ORL1 Ki): 245 nM | ORL1 % Inhibition @ 1 μM (ORL1 receptor): 45% | Ki (human μ opiate receptor; read-out: MOP Ki): 265 nM | MOP % Inhibition @1 μM (human μ opiate receptor): 80%

Where two headings read alike, the source gives them in different places.
